Results as given in ChEMBL document CHEMBL1135413, “Arylamidrazones as novel corticotropin releasing factor receptor antagonists” (J Med Chem, 2002).

Target: T1, Corticotropin-releasing factor receptor 1 (Homo sapiens, UniProt P34998)
T1 sequence (P34998 whole entry): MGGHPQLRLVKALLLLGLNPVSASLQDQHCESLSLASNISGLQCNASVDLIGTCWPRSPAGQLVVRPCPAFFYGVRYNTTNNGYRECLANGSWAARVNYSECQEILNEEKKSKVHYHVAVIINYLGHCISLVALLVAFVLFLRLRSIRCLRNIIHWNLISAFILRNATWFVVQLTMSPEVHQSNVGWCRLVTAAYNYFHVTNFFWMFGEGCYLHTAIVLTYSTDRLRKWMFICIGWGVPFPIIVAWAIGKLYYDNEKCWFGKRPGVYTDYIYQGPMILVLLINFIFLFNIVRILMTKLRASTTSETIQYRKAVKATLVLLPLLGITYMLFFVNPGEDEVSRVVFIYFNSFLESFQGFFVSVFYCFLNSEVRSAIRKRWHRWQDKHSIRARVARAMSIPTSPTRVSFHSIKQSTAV
Experiment: Binding affinity against human Corticotropin releasing factor receptor 1

- Ki: 216 nM
Compound: CC(=O)C(=NNc1ccccc1C)Nc1cccc(Cl)c1
